The target in this assay is human Y2 receptor (human) (UniProt P49146). Kind of assay: cell-based or functional assay.

Chains of the proteins cited; added tags and fusions are not shown.
UniProt P49146, whole entry: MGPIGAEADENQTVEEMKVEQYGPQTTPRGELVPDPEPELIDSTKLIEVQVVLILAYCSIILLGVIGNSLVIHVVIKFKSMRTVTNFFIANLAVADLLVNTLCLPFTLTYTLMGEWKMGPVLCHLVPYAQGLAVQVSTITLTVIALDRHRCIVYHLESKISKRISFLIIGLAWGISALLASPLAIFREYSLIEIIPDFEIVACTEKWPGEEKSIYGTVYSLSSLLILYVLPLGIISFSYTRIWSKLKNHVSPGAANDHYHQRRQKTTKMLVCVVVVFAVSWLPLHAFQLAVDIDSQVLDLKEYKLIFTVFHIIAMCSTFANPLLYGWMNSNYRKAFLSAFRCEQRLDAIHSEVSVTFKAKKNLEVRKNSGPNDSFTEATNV

EC50, cAMP assay (LANCE) on receptor-expressing cells data for 1 substance are collected here from patent US20210094998A1.

For PYY3-36 (peptide), the EC50, cAMP assay (LANCE) on receptor-expressing cells was found to be 0.08 nM.
